According to PubChem BioAssay (NCI):
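Tested at 5 concentrations; 48 h exposure; 96-well plates; endpoints linearly interpolated, else capped at highest concentration. Abbreviation: GI50, concentration required for 50% inhibition of growth. TGI marks complete inhibition of growth.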

Key:
Experiment in all cases: NCI tumour cell line growth inhibition, 48 h
CAKI-1 renal = tested on: CAKI-1 renal
P388/ADR leukemia = tested on: P388/ADR leukemia
HOP-92 NSCLC = tested on: HOP-92 NSCLC
SW-620 colon = tested on: SW-620 colon
HCT-116 colon = tested on: HCT-116 colon
UACC-62 melanoma = tested on: UACC-62 melanoma
HCT-15 colon = tested on: HCT-15 colon
SNB-75 CNS = tested on: SNB-75 CNS
M19-MEL melanoma = tested on: M19-MEL melanoma
UO-31 renal = tested on: UO-31 renal
HT29 colon = tested on: HT29 colon
KM12 colon = tested on: KM12 colon
IGROV1 ovarian = tested on: IGROV1 ovarian
NCI-H322M lung = tested on: NCI-H322M lung
SN12C renal = tested on: SN12C renal
NCI-H522 lung = tested on: NCI-H522 lung
MCF7 breast = tested on: MCF7 breast
DMS 273 small cell lung = tested on: DMS 273 small cell lung
HL-60(TB) leukemia = tested on: HL-60(TB) leukemia
RXF 393 renal = tested on: RXF 393 renal
NCI-H460 lung = tested on: NCI-H460 lung
SK-MEL-5 melanoma = tested on: SK-MEL-5 melanoma
NCI/ADR-RES ovarian = tested on: NCI/ADR-RES ovarian
SK-MEL-28 melanoma = tested on: SK-MEL-28 melanoma
LOX IMVI melanoma = tested on: LOX IMVI melanoma
K-562 leukemia = tested on: K-562 leukemia
NCI-H226 lung = tested on: NCI-H226 lung
OVCAR-8 ovarian = tested on: OVCAR-8 ovarian
OVCAR-4 ovarian = tested on: OVCAR-4 ovarian
A498 renal = tested on: A498 renal
HOP-18 NSCLC = tested on: HOP-18 NSCLC
SF-268 CNS = tested on: SF-268 CNS
EKVX NSCLC = tested on: EKVX NSCLC
A549 NSCLC = tested on: A549 NSCLC
MOLT-4 leukemia = tested on: MOLT-4 leukemia
HCC-2998 colon = tested on: HCC-2998 colon
SNB-78 CNS = tested on: SNB-78 CNS
SN12K1 renal = tested on: SN12K1 renal
SF-295 CNS = tested on: SF-295 CNS
SF-539 CNS = tested on: SF-539 CNS
DLD-1 colon = tested on: DLD-1 colon
CCRF-CEM leukemia = tested on: CCRF-CEM leukemia
KM20L2 colon = tested on: KM20L2 colon
RPMI-8226 leukemia = tested on: RPMI-8226 leukemia
NCI-H23 lung = tested on: NCI-H23 lung
MALME-3M melanoma = tested on: MALME-3M melanoma
OVCAR-3 ovarian = tested on: OVCAR-3 ovarian
HOP-62 NSCLC = tested on: HOP-62 NSCLC
OVCAR-5 ovarian = tested on: OVCAR-5 ovarian
SNB-19 CNS = tested on: SNB-19 CNS
P388 leukemia = tested on: P388 leukemia
DMS 114 small cell lung = tested on: DMS 114 small cell lung
UACC-257 melanoma = tested on: UACC-257 melanoma
SK-OV-3 ovarian = tested on: SK-OV-3 ovarian
SK-MEL-2 melanoma = tested on: SK-MEL-2 melanoma
U251 CNS = tested on: U251 CNS
COLO 205 colon = tested on: COLO 205 colon

In the case of `N#CC1=C(C#N)NP(=O)(N(CCCl)CCCl)N1`, the GI50 (CAKI-1 renal) was over 100 µM, the TGI (CAKI-1 renal) was over 100 µM and the GI50 (P388/ADR leukemia) was over 100 µM. It also gave a TGI (P388/ADR leukemia) of over 100 µM, a GI50 (HOP-92 NSCLC) of over 100 µM and a TGI (HOP-92 NSCLC) of over 100 µM. It also gave a GI50 (SW-620 colon) of over 100 µM, a TGI (SW-620 colon) of over 100 µM and a GI50 (HCT-116 colon) of over 100 µM. The TGI (HCT-116 colon) was over 100 µM, the GI50 (UACC-62 melanoma) was over 100 µM and the TGI (UACC-62 melanoma) was over 100 µM. For the same compound, the GI50 (HCT-15 colon) was over 100 µM, the TGI (HCT-15 colon) was over 100 µM and the GI50 (SNB-75 CNS) was over 100 µM. The TGI (SNB-75 CNS) was over 100 µM, the GI50 (M19-MEL melanoma) was over 100 µM and the TGI (M19-MEL melanoma) was over 100 µM. It also gave a GI50 (UO-31 renal) of over 100 µM, a TGI (UO-31 renal) of over 100 µM and a GI50 (HT29 colon) of over 100 µM. For the same compound, the TGI (HT29 colon) was over 100 µM, the GI50 (KM12 colon) was over 100 µM and the TGI (KM12 colon) was over 100 µM. The GI50 (IGROV1 ovarian) was over 100 µM, the TGI (IGROV1 ovarian) was over 100 µM and the GI50 (NCI-H322M lung) was over 100 µM. It also gave a TGI (NCI-H322M lung) of over 100 µM, a GI50 (SN12C renal) of over 100 µM and a TGI (SN12C renal) of over 100 µM. The GI50 (NCI-H522 lung) was over 100 µM, the TGI (NCI-H522 lung) was over 100 µM and the GI50 (MCF7 breast) was over 100 µM. It also gave a TGI (MCF7 breast) of over 100 µM, a GI50 (DMS 273 small cell lung) of over 100 µM and a TGI (DMS 273 small cell lung) of over 100 µM. For the same compound, the GI50 (HL-60(TB) leukemia) was 31.6 µM, the TGI (HL-60(TB) leukemia) was 31.6 µM and the GI50 (RXF 393 renal) was over 100 µM. It also gave a TGI (RXF 393 renal) of over 100 µM, a GI50 (NCI-H460 lung) of 88.5 µM and a TGI (NCI-H460 lung) of over 100 µM. The GI50 (SK-MEL-5 melanoma) was over 100 µM, the TGI (SK-MEL-5 melanoma) was over 100 µM and the GI50 (NCI/ADR-RES ovarian) was over 100 µM. The TGI (NCI/ADR-RES ovarian) was over 100 µM, the GI50 (SK-MEL-28 melanoma) was over 100 µM and the TGI (SK-MEL-28 melanoma) was over 100 µM. It also gave a GI50 (LOX IMVI melanoma) of over 100 µM, a TGI (LOX IMVI melanoma) of over 100 µM and a GI50 (K-562 leukemia) of over 100 µM. The TGI (K-562 leukemia) was over 100 µM, the GI50 (NCI-H226 lung) was over 100 µM and the TGI (NCI-H226 lung) was over 100 µM. The GI50 (OVCAR-8 ovarian) was over 100 µM, the TGI (OVCAR-8 ovarian) was over 100 µM and the GI50 (OVCAR-4 ovarian) was over 100 µM. The TGI (OVCAR-4 ovarian) was over 100 µM, the GI50 (A498 renal) was over 100 µM and the TGI (A498 renal) was over 100 µM. The GI50 (HOP-18 NSCLC) was over 100 µM, the TGI (HOP-18 NSCLC) was over 100 µM and the GI50 (SF-268 CNS) was over 100 µM. The TGI (SF-268 CNS) was over 100 µM, the GI50 (EKVX NSCLC) was over 100 µM and the TGI (EKVX NSCLC) was over 100 µM. It also gave a GI50 (A549 NSCLC) of over 100 µM, a TGI (A549 NSCLC) of over 100 µM and a GI50 (MOLT-4 leukemia) of 38.1 µM. For the same compound, the TGI (MOLT-4 leukemia) was over 100 µM, the GI50 (HCC-2998 colon) was over 100 µM and the TGI (HCC-2998 colon) was over 100 µM. It also gave a GI50 (SNB-78 CNS) of over 100 µM, a TGI (SNB-78 CNS) of over 100 µM and a GI50 (SN12K1 renal) of over 100 µM. It also gave a TGI (SN12K1 renal) of over 100 µM, a GI50 (SF-295 CNS) of over 100 µM and a TGI (SF-295 CNS) of over 100 µM. It also gave a GI50 (SF-539 CNS) of over 100 µM, a TGI (SF-539 CNS) of over 100 µM and a GI50 (DLD-1 colon) of over 100 µM. The TGI (DLD-1 colon) was over 100 µM, the GI50 (CCRF-CEM leukemia) was over 100 µM and the TGI (CCRF-CEM leukemia) was over 100 µM. The GI50 (KM20L2 colon) was over 100 µM, the TGI (KM20L2 colon) was over 100 µM and the GI50 (RPMI-8226 leukemia) was over 100 µM. For the same compound, the TGI (RPMI-8226 leukemia) was over 100 µM, the GI50 (NCI-H23 lung) was over 100 µM and the TGI (NCI-H23 lung) was over 100 µM. For the same compound, the GI50 (MALME-3M melanoma) was over 100 µM, the TGI (MALME-3M melanoma) was over 100 µM and the GI50 (OVCAR-3 ovarian) was over 100 µM. For the same compound, the TGI (OVCAR-3 ovarian) was over 100 µM, the GI50 (HOP-62 NSCLC) was over 100 µM and the TGI (HOP-62 NSCLC) was over 100 µM. The GI50 (OVCAR-5 ovarian) was over 100 µM, the TGI (OVCAR-5 ovarian) was over 100 µM and the GI50 (SNB-19 CNS) was over 100 µM. It also gave a TGI (SNB-19 CNS) of over 100 µM, a GI50 (P388 leukemia) of over 100 µM and a TGI (P388 leukemia) of over 100 µM. For the same compound, the GI50 (DMS 114 small cell lung) was over 100 µM, the TGI (DMS 114 small cell lung) was over 100 µM and the GI50 (UACC-257 melanoma) was over 100 µM. For the same compound, the TGI (UACC-257 melanoma) was over 100 µM, the GI50 (SK-OV-3 ovarian) was over 100 µM and the TGI (SK-OV-3 ovarian) was over 100 µM. It also gave a GI50 (SK-MEL-2 melanoma) of over 100 µM, a TGI (SK-MEL-2 melanoma) of over 100 µM and a GI50 (U251 CNS) of over 100 µM. The TGI (U251 CNS) was over 100 µM, the GI50 (COLO 205 colon) was over 100 µM and the TGI (COLO 205 colon) was over 100 µM.
